From patent US5922689A, “Cisplatin analogs for cancer treatment” (Unitech Pharmaceuticals, Inc., priority 1997, dated 1999)

Assay: Solubility in water
Assay type: physicochemical
Conditions: for solubility in water (in words): room temperature

Row | Substance | solubility in water (in words) | solubility in water (ambient temperature) [µg/mL]
1 | cis-diamminediguanosineplatinum chloride [cis-[Pt(NH3)2 (Guanosine)2]Cl2] | slightly soluble in water | 
2 | cis-diamminechloroguanosineplatinum chloride [cis-[Pt(NH3)2 Cl(Guanosine)]Cl] | slightly soluble in water | 2600
